What was measured:
[1] = molecular target: T1, human A2B adenosine receptors expressed in HEK-293 cell membranes (Homo sapiens, UniProt P29275); assay: Sodium shift and GTP shift competition experiments versus [^3H]PSB-298; assay type: binding; details: GTP 1 mM; data not shown
T1 sequence (P29275 1-332): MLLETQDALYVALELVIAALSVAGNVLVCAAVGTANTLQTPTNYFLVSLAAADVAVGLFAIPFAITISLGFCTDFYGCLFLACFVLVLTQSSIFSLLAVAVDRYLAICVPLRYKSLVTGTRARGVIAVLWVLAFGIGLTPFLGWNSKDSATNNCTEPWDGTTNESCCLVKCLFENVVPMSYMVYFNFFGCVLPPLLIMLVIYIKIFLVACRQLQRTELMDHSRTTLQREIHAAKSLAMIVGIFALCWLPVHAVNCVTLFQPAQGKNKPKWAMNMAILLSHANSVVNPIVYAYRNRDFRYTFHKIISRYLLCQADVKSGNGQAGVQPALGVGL

[2] = system: human adenosine A2B receptors; details: 100 mM NaCl; cited from earlier work
[3] = molecular target: T2, recombinant human adenosine A2B receptors expressed in HEK-293 cell membranes (Homo sapiens, UniProt P29275); assay: Effect of salts and additives on specific binding of 1 nM [^3H]PSB-298; details: for increase of specific binding of the radioligand: 1 nM [^3H]PSB-298
T2 sequence (P29275 1-332): T1 sequence (P29275 1-332)

Compound | effect of GTP on competition curve [1] | effect of NaCl on binding of [^3H]MRS1754 [2] | increase of specific binding of the radioligand ([3]; 100 mM NaCl) [%] | change of specific binding of 1 nM [^3H]PSB-298 ([3]; 1 M NaCl) | increase of specific binding of the radioligand ([3]; up to 3 M NaCl) [%]
CCNC(=O)[C@H]1O[C@@H](n2cnc3c(N)ncnc32)[C@H](O)[C@@H]1O [NECA, 5′-N-ethylcarboxamidoadenosine] | no significant effect | – | – | – | –
[Cl-].[Na+] [NaCl, sodium chloride] | – | had not shown any effect | 245 ± 55 | more than doubled | 594 ± 116

— paper PMC2096648 (Purinergic Signalling, 2006)
